Literature values, collected in US6149937A, “Liposome encapsulated amphiphilic drug compositions” (priority 1996, dated 2000).

Assays:
[1] = Table II; cited from earlier work
[2] = Table II; cited from earlier work; remark: listed apart in the source

| SMILES | Log Poct [1] | pKs [2] |
| --- | --- | --- |
| CCC(=O)N(c1ccccc1)C1CCN(CCc2ccccc2)CC1 | 3 | 8.4 |
| CCC(=O)N(c1ccccc1)C1(COC)CCN(CCc2cccs2)CC1 | 3.2 | 8.1 |
| CCC(=O)N(c1ccccc1)C1(COC)CCN(CCn2nnn(CC)c2=O)CC1 | 2.1 | 6.5 |

Only a part of the results on these compounds is given; other tests are left out.
